Experimental data reported in PubChem BioAssay AID2107 (National Center for Advancing Translational Sciences (NCATS), 2009).
The entries are a selection whose mix differs from that of the whole data set. Active and inactive are the calls of the source. Calls follow the shape of the dose curve; as a rule, active = well fitted inhibition curve with a large enough effect; inconclusive = small, poorly fitted or top-dose-only effect, or effect the other way; inactive = flat fitted curve, though single readings scatter.

Sequences of proteins named here, by UniProt entry; tags and fusion partners are left off. Residues count along the entry.
UniProt P06280, 32-429 limits assumed: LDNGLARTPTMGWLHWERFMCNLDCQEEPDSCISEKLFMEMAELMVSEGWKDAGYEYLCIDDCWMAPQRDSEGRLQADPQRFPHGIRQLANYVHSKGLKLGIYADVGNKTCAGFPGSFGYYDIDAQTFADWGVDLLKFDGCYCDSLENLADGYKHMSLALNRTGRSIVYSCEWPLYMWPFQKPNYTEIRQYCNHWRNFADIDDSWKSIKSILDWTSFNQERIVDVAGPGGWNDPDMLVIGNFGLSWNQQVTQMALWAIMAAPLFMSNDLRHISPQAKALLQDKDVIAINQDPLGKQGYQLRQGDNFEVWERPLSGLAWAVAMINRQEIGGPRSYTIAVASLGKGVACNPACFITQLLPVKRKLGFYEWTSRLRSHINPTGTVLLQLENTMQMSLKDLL

Target: Alpha-galactosidase A (Homo sapiens) (UniProt P06280)
Experiment: qHTS Assay for Inhibitors and Activators of Human alpha-Galactosidase From Spleen Homogenate;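 also: 0% = enzyme with vehicle and -100% = no enzyme basal signal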
Details: 4MU-alpha-Gal fluorescence, 40 min; at 80 µM (top of the series)
Excerpt: NIH Chemical Genomics Center [NCGC] NIH Molecular Libraries Probe Production Centers Network [MLPCN] MLPCN Grant: R03 MH084842-01 Assay Submitter (PI): Wei Zheng NCGC Assay Overview: Alpha-galactosidase is a homodimeric glycoprotein that hydrolyzes the terminal alpha-galactosyl moieties from glycolipids and glycoproteins. Deficiency of this enzyme results in Fabry Disease with progressive accumulation of globotriaosylceramide and other glycosphingolipids in vascular endothelial cells that causes renal failure, myocardial infarction and stroke, and premature death in patients. […]
NCGC Assay Protocol Summary: This is a fluorogenic enzyme assay with 4-methylumbelliferyl-alpha-D-galactopyranoside as the substrate and human spleen homogenate containing alpha-galactosidase as the enzyme preparation. Upon hydrolysis of this fluorogenic substrate, the resulting product, 4-methylumbelliferone (which excites at 365 nm and emits at 440 nm) can be detected by a fluorescence plate reader. […] The AC50 values were determined from concentration-response data modeled with the standard Hill equation. […] (3) Add 2 ul of substrate (1 mM final) (4) Incubate at 37C for 40 min (5) Add 2 ul stop solution (1M NaOH and 1M Glycine mixture, pH 10) (6) Detect the assay plate in a ViewLux plate reader (PerkinElmer) with Ex=365 nm and Em=440nm. […]

| SMILES | activity change, negative = inhibition |
| --- | --- |
| CP(=O)(Nc1ccccn1)Oc1ccccc1 (stereo unspecified) | inactive: -3.45% |
